Assay results from patent US20020058669A1, “PROCESS FOR THE TREATMENT OF ORGANOPHOSPHATE POISONING” (published 2002).

System: soman-poisoning in rats
Experiment: Protection of CPA injected 1 min after soman-poisoning in rats
Conditions: CPA 2 mg/kg i.m. alone, no soman, n = 2

SMILES: OC[C@H]1O[C@@H](n2cnc3c(NC4CCCC4)ncnc32)[C@H](O)[C@@H]1O
- Symptoms: no physical signs
